Paper PMC11900971 (International Journal of Molecular Sciences, 2025)

Tests used:
[1] = tested on: Trypanosoma brucei rhodesiense, STIB 900 strain, bloodstream forms
[2] = tested on: Plasmodium falciparum, strain NF54, erythrocytic stages

SMILES | SI (T. b. rhod.) [1] | SI (P. falc.) [2]
CC1=C(Cc2ccc([N+](=O)[O-])cc2F)C(=O)c2ccccc2C1=O [Compound 2h, 2-[(2-Fluoro-4-nitrophenyl)methyl]-3-methyl-1,4-naphthoquinone] | 1 | 810
CC1=C(Cc2cc(F)c(F)cc2F)C(=O)c2ccccc2C1=O [Compound 2i, 2-Methyl-3-[(2,4,5-trifluorophenyl)methyl]-1,4-naphthoquinone] | 2 | 1231
CC1=C(Cc2cc(C(F)(F)F)ccc2F)C(=O)c2ccccc2C1=O [Compound 2e, 2-{[2-Fluoro-5-(trifluoromethyl)phenyl]methyl}-3-methyl-1,4-naphthoquinone] | – | 7495
CC1=C(Cc2cccc(NC(=O)CCC(F)(F)F)c2)C(=O)c2ccccc2C1=O [Compound 2o, 2-Methyl-3-{[3-(4,4,4-trifluorobutanamido)phenyl]methyl}-1,4-naphthoquinone] | 2 | 131
CC1=C(Cc2ccc(OC(F)(F)F)cc2)C(=O)c2ccccc2C1=O [Compound 2q, 2-Methyl-3-{[4-(trifluoromethoxy)phenyl]methyl}-1,4-naphthoquinone] | 2 | 4250
CC1=C(Cc2ccc(NC(=O)C(F)(F)F)cc2)C(=O)c2ccccc2C1=O [Compound 2l, 2-Methyl-3-{[4-(2,2,2-trifluoroacetamido)phenyl]methyl}-1,4-naphthoquinone] | 1 | 109
CC1=C(Cc2ccc(C(F)(F)F)cc2F)C(=O)c2ccccc2C1=O [Compound 2c, 2-{[2-Fluoro-4-(trifluoromethyl)phenyl]methyl}-3-methyl-1,4-naphthoquinone] | 1 | 5377
CC1=C(Cc2ccc(F)cc2)C(=O)c2ccccc2C1=O [Compound 2p, 2-[(4-Fluorophenyl)methyl]-3-methyl-1,4-naphthoquinone] | 2 | 1194
O=C1C(Cc2ccccc2)=C(C(F)(F)F)C(=O)c2ccccc21 [Compound 5a, 2-Benzyl-3-(trifluoromethyl)-1,4-naphthoquinone] | 6 | 3
O=C1C=C(Cc2ccc(F)cc2C(F)(F)F)C(=O)c2ccccc21 [Compound 4d, 2-{[4-Fluoro-2-(trifluoromethyl)phenyl]methyl}-1,4-naphthoquinone] | 22 | 17
CC(=O)Nc1cccc(CC2=C(C)C(=O)c3ccccc3C2=O)c1 [Compound 2k, 2-[(3-Acetamidophenyl)methyl]-3-methyl-1,4-naphthoquinone] | – | 22
CC1=C(Cc2ccc(Cl)nc2)C(=O)c2ccccc2C1=O [Compound 2f, 2-[(6-Chloropyridin-3-yl)methyl]-3-methyl-1,4-naphthoquinone] | 3 | 654
O=C1C=C(Cc2ccc(Cl)nc2)C(=O)c2ccccc21 [Compound 4e, 2-[(6-Chloropyridin-3-yl)methyl]-1,4-naphthoquinone] | 8 | 2
O=C1C=C(Cc2ccc(C(F)(F)F)cc2)C(=O)c2ccccc21 [Compound 4b, 2-{[4-(Trifluoromethyl)phenyl]methyl}-1,4-naphthoquinone] | 38 | 28
O=C1C=C(Cc2ccc(C(F)(F)F)cc2F)C(=O)c2ccccc21 [Compound 4c, 2-{[2-Fluoro-4-(trifluoromethyl)phenyl]methyl}-1,4-naphthoquinone] | 47 | 21
O=C1C=C(Cc2ccccc2)C(=O)c2ccccc21 [Compound 4a, 2-Benzyl-1,4-naphthoquinone] | 193 | 22
CC(=O)Nc1ccc(CC2=C(C)C(=O)c3ccccc3C2=O)cc1 [Compound 2j, 2-[(4-Acetamidophenyl)methyl]-3-methyl-1,4-naphthoquinone] | 1 | 24
CC1=C(Cc2cccc(NC(=O)C(F)(F)F)c2)C(=O)c2ccccc2C1=O [Compound 2m, 2-Methyl-3-{[3-(2,2,2-trifluoroacetamido)phenyl]methyl}-1,4-naphthoquinone] | 1 | 43
CC1=C(Cc2ccc(F)cc2C(F)(F)F)C(=O)c2ccccc2C1=O [Compound 2d, 2-{[4-Fluoro-2-(trifluoromethyl)phenyl]methyl}-3-methyl-1,4-naphthoquinone] | 3 | 3099
CC1=C(Cc2cccc(OC(F)(F)F)c2)C(=O)c2ccccc2C1=O [Compound 2r, 2-Methyl-3-{[3-(trifluoromethoxy)phenyl]methyl}-1,4-naphthoquinone] | 3 | 1641
CC1=C(Cc2ccc([N+](=O)[O-])cc2)C(=O)c2ccccc2C1=O [Compound 2g, 2-Methyl-3-[(4-nitrophenyl)methyl]-1,4-naphthoquinone] | 1 | 172
CC1=C(Cc2cc(OC(F)(F)F)ccc2F)C(=O)c2ccccc2C1=O [Compound 2s, 2-{[2-Fluoro-5-(trifluoromethoxy)phenyl]methyl}-3-methyl-1,4-naphthoquinone] | 1 | 2166
O=C1C(Cc2ccc(C(F)(F)F)cc2)=C(C(F)(F)F)C(=O)c2ccccc21 [Compound 5b, 2-(Trifluoromethyl)-3-{[4-(trifluoromethyl)phenyl]methyl}-1,4-naphthoquinone] | 1 | 1
CC1=C(Cc2ccccc2)C(=O)c2ccccc2C1=O [Compound 2a, 2-Benzyl-3-methyl-1,4-naphthoquinone] | 1 | 126
